This assay concerns the target human M1 mAChR (Homo sapiens, UniProt P11229). To be noted: saturation binding, membranes expressing human M1 mAChR; tested as the radiolabelled form.

The chains behind the UniProt entries cited, without tags or fusion partners.
UniProt P11229, whole entry: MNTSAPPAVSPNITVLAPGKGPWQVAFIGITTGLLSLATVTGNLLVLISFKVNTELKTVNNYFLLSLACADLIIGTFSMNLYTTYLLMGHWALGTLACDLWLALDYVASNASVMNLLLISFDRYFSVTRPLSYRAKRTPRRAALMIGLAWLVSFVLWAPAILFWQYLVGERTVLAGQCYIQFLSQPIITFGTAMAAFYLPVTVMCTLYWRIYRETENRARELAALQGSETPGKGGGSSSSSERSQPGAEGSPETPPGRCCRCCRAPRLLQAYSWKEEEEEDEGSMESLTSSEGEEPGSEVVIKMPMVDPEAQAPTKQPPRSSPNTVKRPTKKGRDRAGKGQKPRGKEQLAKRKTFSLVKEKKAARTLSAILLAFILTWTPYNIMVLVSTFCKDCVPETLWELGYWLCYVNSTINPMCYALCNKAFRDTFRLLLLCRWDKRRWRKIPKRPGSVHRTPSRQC

Take `Cc1cc(F)c2[nH]c(=O)n(C3CCN(C4CCOCC4)CC3)c2c1` [GSK1034702, 7-fluoro-5-methyl-3-[1-(oxan-4-yl)piperidin-4-yl]-1H-benzimidazol-2-one]: the Kd came out at 550 nM.

A word on the Kd: it is the constant that tells how readily two partners part at equilibrium. A higher Kd goes with a looser complex.

(Values after paper PMC5963591, “Bitopic Binding Mode of an M1 Muscarinic Acetylcholine Receptor Agonist Associated with Adverse Clinical Trial Outcomes” (Molecular Pharmacology, 2018).)
